Data published in PubChem BioAssay AID1224863 (Southern Research Institute, 2016).
“And” between values parts separate entries of the source, which are not always exact repeats. Equal entries are not always repeated. About 15 (0.1%) of roughly 10,000 compounds were called active.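 How the source made its calls: active means highest signal at least 8 times the median of untreated cell-only control wells at some dose; inactive means the rest.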 These entries were drawn from the full list.

By UniProt entry, the sequences of proteins in these tests, tags left out. Chains listed by the source or under a name are the forms on record and can include a tag or linker.
UniProt P13569, with tags, fused parts or gaps F508del: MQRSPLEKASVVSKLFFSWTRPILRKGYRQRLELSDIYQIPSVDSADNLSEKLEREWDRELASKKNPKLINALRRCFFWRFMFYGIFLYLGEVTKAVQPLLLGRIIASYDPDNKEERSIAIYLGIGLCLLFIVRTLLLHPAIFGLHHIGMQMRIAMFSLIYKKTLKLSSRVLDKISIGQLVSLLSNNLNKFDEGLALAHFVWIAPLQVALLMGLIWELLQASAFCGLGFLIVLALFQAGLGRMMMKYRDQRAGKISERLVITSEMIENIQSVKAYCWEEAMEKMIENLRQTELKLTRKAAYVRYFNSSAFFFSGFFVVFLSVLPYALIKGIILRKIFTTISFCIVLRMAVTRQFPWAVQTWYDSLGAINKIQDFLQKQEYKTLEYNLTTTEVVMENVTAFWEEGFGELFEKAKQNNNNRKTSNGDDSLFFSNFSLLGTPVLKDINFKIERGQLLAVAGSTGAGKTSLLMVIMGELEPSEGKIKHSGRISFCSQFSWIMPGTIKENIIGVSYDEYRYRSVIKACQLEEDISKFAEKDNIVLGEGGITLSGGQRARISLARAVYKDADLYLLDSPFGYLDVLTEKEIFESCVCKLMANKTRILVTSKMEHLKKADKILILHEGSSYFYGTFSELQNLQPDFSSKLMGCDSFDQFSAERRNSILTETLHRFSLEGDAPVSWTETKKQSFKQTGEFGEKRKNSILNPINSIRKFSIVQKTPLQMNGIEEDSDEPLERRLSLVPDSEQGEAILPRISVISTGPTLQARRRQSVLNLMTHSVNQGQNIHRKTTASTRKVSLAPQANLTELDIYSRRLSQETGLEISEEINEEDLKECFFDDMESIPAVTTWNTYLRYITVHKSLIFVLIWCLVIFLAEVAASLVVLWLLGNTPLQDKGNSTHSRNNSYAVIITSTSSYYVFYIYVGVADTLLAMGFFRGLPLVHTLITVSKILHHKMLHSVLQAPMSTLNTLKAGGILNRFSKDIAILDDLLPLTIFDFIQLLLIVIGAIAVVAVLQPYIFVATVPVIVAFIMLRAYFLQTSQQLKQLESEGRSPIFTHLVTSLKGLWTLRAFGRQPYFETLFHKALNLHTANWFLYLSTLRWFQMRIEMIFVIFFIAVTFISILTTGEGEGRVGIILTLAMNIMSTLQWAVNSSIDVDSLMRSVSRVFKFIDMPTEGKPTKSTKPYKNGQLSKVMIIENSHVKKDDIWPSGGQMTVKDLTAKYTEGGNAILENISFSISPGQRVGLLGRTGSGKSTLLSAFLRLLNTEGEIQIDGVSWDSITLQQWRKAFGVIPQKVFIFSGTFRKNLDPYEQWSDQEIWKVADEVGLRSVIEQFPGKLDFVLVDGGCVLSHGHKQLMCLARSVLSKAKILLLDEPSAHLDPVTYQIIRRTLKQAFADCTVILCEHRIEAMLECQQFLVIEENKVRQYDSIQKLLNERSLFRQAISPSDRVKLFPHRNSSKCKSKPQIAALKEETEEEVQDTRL

Columns and labels:
[1] = total CFTR protein upregulators, primary screen, cell-based, HeLa F508del-CFTR, immunofluorescence, viability (AID 1224863); settings: 24 h, stronger effect = higher value; min viability: measured here: HeLa viability, alamarBlue, dose 20, library dosed in µg/mL unless noted; viability: measured here: primary viability 10 ug/mL, library dosed in µg/mL unless noted;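 on fold increase: total CFTR protein by anti-CFTR immunofluorescence in fixed cells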;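 on max fold increase: total CFTR protein by anti-CFTR immunofluorescence in fixed cells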
[2] = target: Cystic fibrosis transmembrane conductance regulator (Homo sapiens) (UniProt P13569); test: as above; settings: 24 h; fold increase: measured here: primary screen 10 ug/mL, library dosed in µg/mL, stronger effect = higher value unless noted; max fold increase: dose 10, library dosed in µg/mL, stronger effect = higher value unless noted; outcome: library dosed in µg/mL unless noted

O=S(=O)(c1ccc(S(=O)(=O)N(Cc2ccc3c(c2)OCO3)C2CCCC2)cc1)N1CCCC1
viability [1]: 98% | fold increase [2]: 0.96 | outcome [2]: inactive

CNC(=O)CN(C)c1ncnc2sc3c(c12)CCCC3
viability [1]: 94% | fold increase [2]: 1.01 | outcome [2]: inactive

Nc1nccnc1C(=O)N1CCN(c2nccs2)CC1
viability [1]: 79% | fold increase [2]: 1.03 | outcome [2]: inactive

CC[C@H](C)[C@H]1O[C@]2(CC[C@@H]1C)C[C@@H]1C[C@@H](C/C=C(\C)[C@@H](O[C@H]3C[C@H](OC)[C@@H](O[C@H]4C[C@H](OC)[C@@H](O)[C@H](C)O4)[C@H](C)O3)[C@@H](C)/C=C/C=C3\CO[C@@H]4[C@H](O)C(C)=C[C@@H](C(=O)O1)[C@]34O)O2
viability [1]: 25% [measured here: primary viability 25 uM, at 25 µM, library dosed in µM] and 48% [measured here: primary viability 25 uM, at 25 µM, library dosed in µM] | fold increase [2]: 0.61 [measured here: primary screen single dose 25 uM, at 25 µM, library dosed in µM, stronger effect = higher value] and 0.72 [measured here: primary screen single dose 25 uM, at 25 µM, library dosed in µM, stronger effect = higher value] | outcome [2]: inactive [library dosed in µM]

COCCN1C(=O)C(=O)/C(=C(/O)c2ccccc2)C1c1cccc(Oc2ccccc2)c1 (configuration not stated)
viability [1]: 106% | fold increase [2]: 0.99 | outcome [2]: inactive

Cc1cc(C(=O)Cn2nnn(-c3cccs3)c2=O)c(C)n1CCc1cccs1
viability [1]: 91% | fold increase [2]: 0.85 | outcome [2]: inactive

O=C(CSc1nc(O)cc(=O)n1C1CCCC1)NC12CC3CC(CC(C3)C1)C2
viability [1]: 85% | fold increase [2]: 0.96 | outcome [2]: inactive

CCSc1nnc(SC(C)c2ccc(F)cc2)s1 (configuration not stated)
viability [1]: 77% | fold increase [2]: 0.8 | outcome [2]: inactive

O=C(CC1CC2CCC1C2)N1CCN(c2cnccn2)CC1 (configuration not stated)
viability [1]: 83% | fold increase [2]: 1 | outcome [2]: inactive

O=C(CC1CC2CCC1C2)Nc1cc(NC(=O)c2ccc3c(c2)OCO3)ccc1F (configuration not stated)
viability [1]: 78% | fold increase [2]: 0.79 | outcome [2]: inactive

CCc1nc2ccccc2n1CCOc1ccc(Br)cc1
viability [1]: 81% | fold increase [2]: 0.89 | outcome [2]: inactive

COc1cc(F)c(S(=O)(=O)Nc2ccc3c(c2)OC2(CCCCC2)O3)cc1OC
viability [1]: 85% | fold increase [2]: 0.93 | outcome [2]: inactive

CCN(CC)S(=O)(=O)c1cc2c(cc1Br)NC(=O)CO2
viability [1]: 92% | fold increase [2]: 1.02 | outcome [2]: inactive

CSCCSc1nnc(-c2ccccc2)n1-c1ccc(Cl)cc1
viability [1]: 81% | fold increase [2]: 0.92 | outcome [2]: inactive

C=CCn1c(C)cc(C(=O)COc2ccc3oc4c(c3c2)CCCC4)c1C
viability [1]: 84% | fold increase [2]: 0.97 | outcome [2]: inactive

N#CCSc1nc2sc3c(c2c(=O)n1C1CCCC1)CCCC3
viability [1]: 80% | fold increase [2]: 0.98 | outcome [2]: inactive

CCOC(=O)C1SC(SCc2cc(C(=O)OC)c(C)o2)=NC1=O (configuration not stated)
viability [1]: 99% | fold increase [2]: 1.01 | outcome [2]: inactive

CN1C(=O)C(=O)N(CCOc2ccc(Cl)cc2Br)C1=O
viability [1]: 90% | fold increase [2]: 0.98 | outcome [2]: inactive

Clc1ccc(-c2csc(NC3CC3)n2)cc1Cl
viability [1]: 99% | fold increase [2]: 0.91 | outcome [2]: inactive

CC(c1nc(C(C)(C)C)no1)N1CCN(c2ccccc2F)CC1 (configuration not stated)
viability [1]: 87% | fold increase [2]: 0.89 | outcome [2]: inactive

CC(=O)c1c(C)[nH]c(C(=O)C(C)N2CCN(C(=O)C3CC3)CC2)c1C (configuration not stated)
viability [1]: 78% | fold increase [2]: 0.82 | outcome [2]: inactive

CS(=O)(=O)N1CCN(c2ccc(Br)cc2[N+](=O)[O-])CC1
viability [1]: 103% | fold increase [2]: 0.92 | outcome [2]: inactive

Cc1cc(C(=O)OC(C)C(N)=O)c(C)n1CC(F)(F)F (configuration not stated)
viability [1]: 88% | fold increase [2]: 1.05 | outcome [2]: inactive

Cc1cc(CN2CCN(CCS(=O)c3ccccc3)CC2)on1 (configuration not stated)
viability [1]: 90% | fold increase [2]: 1.09 | outcome [2]: inactive

C=CCn1c(-c2cccnc2)nn(CN2CCc3ccccc3C2)c1=S
viability [1]: 111% | fold increase [2]: 1.12 | outcome [2]: inactive

CN1N=C(C(=O)Nc2ccc3c(c2)OC2(CCCC2)O3)CCC1=O
viability [1]: 92% | fold increase [2]: 0.97 | outcome [2]: inactive

Cc1cc(C)n2nc(SCC(=O)c3ccc(Br)cc3)nc2n1
viability [1]: 76% | fold increase [2]: 0.93 | outcome [2]: inactive

CC1CCc2c(sc3nc(-c4cccnc4)nc(N4CCNC(=O)CC4)c23)C1 (configuration not stated)
viability [1]: 84% | fold increase [2]: 0.94 | outcome [2]: inactive

COc1ccc(C23CC4CC(CC(C(=O)OC5CCOC5=O)(C4)C2)C3)cc1 (configuration not stated)
viability [1]: 108% | fold increase [2]: 1.12 | outcome [2]: inactive

Cc1ccc(-c2nc(-c3ccc(C(C)(C)C)cc3)c(C)s2)cc1
viability [1]: 96% | fold increase [2]: 1.12 | outcome [2]: inactive

N#CC1(c2nc3ccccc3s2)Cc2cc([N+](=O)[O-])ccc2N2CCCCC21 (configuration not stated)
viability [1]: 88% | fold increase [2]: 1.17 | outcome [2]: inactive

CN1CCN(S(=O)(=O)c2ccc(Sc3ccc(Br)cc3)nc2)CC1
viability [1]: 79% | fold increase [2]: 0.92 | outcome [2]: inactive

CCCNC(=O)C(C)NC(=O)Cc1c(C)nc2nc(N)nn2c1C (configuration not stated)
viability [1]: 99% | fold increase [2]: 1.14 | outcome [2]: inactive

Cc1nn2c(nc(NC3CCCN(C)C3)c3ccccc32)c1Cl (configuration not stated)
min viability [1]: 70.3% [measured here: HeLa viability, alamarBlue, dose 10, library dosed in µg/mL] | viability [1]: 72% | fold increase [2]: 2.03 | max fold increase [2]: 1.32 [dose 0.039, library dosed in µg/mL, stronger effect = higher value] (inactive)

O=c1oc2ccccc2n1CN1CCCC(O)C1 (configuration not stated)
viability [1]: 85% | fold increase [2]: 0.95 | outcome [2]: inactive

O=[N+]([O-])c1cc2c(c(CSc3nnnn3-c3ccc(Cl)cc3)c1)OCOC2
viability [1]: 91% | fold increase [2]: 1.01 | outcome [2]: inactive

CN(Cc1nc2ccsc2c(=O)[nH]1)C(=O)CCc1nnc(-c2ccsc2)o1
viability [1]: 87% | fold increase [2]: 1.17 | outcome [2]: inactive
